In US20190030018A1 (Celgene Corporation, priority 2017, published 2019):

Columns and labels:
Assay in all cases: In vitro combination studies, CellTitre-Glo cell viability
[1] = system: KG-1
[2] = system: OCI-AML-2
[3] = system: NOMO-1
[4] = system: F-36-P
[5] = system: ML-2
[6] = system: OCT-AML-3
[7] = system: HL-60
[8] = system: MV-4-11
[9] = system: MOLM-13
[10] = system: HNT-34

Structure (SMILES)	Synergy analysis for combinations with Compound 1 [1]	Synergy analysis for combinations with Compound 1 [2]	Synergy analysis for combinations with Compound 1 [3]	Synergy analysis for combinations with Compound 1 [4]	Synergy analysis for combinations with Compound 1 [5]	Synergy analysis for combinations with Compound 1 [6]	Synergy analysis for combinations with Compound 1 [7]	Synergy analysis for combinations with Compound 1 [8]	Synergy analysis for combinations with Compound 1 [9]	Synergy analysis for combinations with Compound 1 [10]
CC(=O)[C@]1(O)Cc2c(O)c3c(c(O)c2[C@@H](O[C@H]2C[C@H](N)[C@H](O)[C@H](C)O2)C1)C(=O)c1ccccc1C3=O [Idarubicin HCl]	No	No	No	No	–	–	–	–	–	–
CN(Cc1cnc2nc(N)nc(N)c2n1)c1ccc(C(=O)N[C@@H](CCC(=O)O)C(=O)O)cc1 [Methotrexate]	–	–	No	–	–	–	–	–	–	–
Sc1ncnc2nc[nH]c12 [Compound 6-Mercaptopurine, 6-Mercaptopurine]	No	No	–	–	No	No	No	No	Yes	–
CC[C@@]1(O)C(=O)OCc2c1cc1n(c2=O)Cc2cc3c(CN(C)C)c(O)ccc3nc2-1 [Topotecan]	No	–	–	–	No	–	No	–	–	–
Nc1nc(Cl)nc2c1ncn2[C@@H]1O[C@H](CO)[C@@H](O)[C@@H]1F [Clofarabine]	No	–	–	No	No	–	–	Yes	–	–
Nc1nc2nc[nH]c2c(=S)[nH]1 [Thioguanine]	No	–	No	No	No	–	No	–	–	–
COc1cccc2c1C(=O)c1c(O)c3c(c(O)c1C2=O)C[C@@](O)(C(C)=O)C[C@@H]3O[C@H]1C[C@H](N)[C@H](O)[C@H](C)O1 [Daunorubicin]	–	No	–	No	–	No	No	No	–	No
CC(C)C[C@H](NC(=O)[C@H](Cc1ccccc1)NC(=O)c1cnccn1)B(O)O [Bortezomib]	–	No	–	–	No	No	–	No	–	–
Nc1nc(Cl)nc2c1ncn2[C@H]1C[C@H](O)[C@@H](CO)O1 [Cladribine]	–	No	No	–	No	–	–	–	Yes	–

Counter-ions that a name gives are not always drawn.
